Drawing on US9567341B2, “Pyrrolopyrimidine derivatives as NR2B NMDA receptor antagonists” (Rugen Holdings (Cayman) Limited, priority 2014, dated 2017), this text covers IC50 for five compounds.

Chains of the proteins cited; added tags and fusions are not shown. Residues count along the entry.
UniProt Q13224, 27-1484: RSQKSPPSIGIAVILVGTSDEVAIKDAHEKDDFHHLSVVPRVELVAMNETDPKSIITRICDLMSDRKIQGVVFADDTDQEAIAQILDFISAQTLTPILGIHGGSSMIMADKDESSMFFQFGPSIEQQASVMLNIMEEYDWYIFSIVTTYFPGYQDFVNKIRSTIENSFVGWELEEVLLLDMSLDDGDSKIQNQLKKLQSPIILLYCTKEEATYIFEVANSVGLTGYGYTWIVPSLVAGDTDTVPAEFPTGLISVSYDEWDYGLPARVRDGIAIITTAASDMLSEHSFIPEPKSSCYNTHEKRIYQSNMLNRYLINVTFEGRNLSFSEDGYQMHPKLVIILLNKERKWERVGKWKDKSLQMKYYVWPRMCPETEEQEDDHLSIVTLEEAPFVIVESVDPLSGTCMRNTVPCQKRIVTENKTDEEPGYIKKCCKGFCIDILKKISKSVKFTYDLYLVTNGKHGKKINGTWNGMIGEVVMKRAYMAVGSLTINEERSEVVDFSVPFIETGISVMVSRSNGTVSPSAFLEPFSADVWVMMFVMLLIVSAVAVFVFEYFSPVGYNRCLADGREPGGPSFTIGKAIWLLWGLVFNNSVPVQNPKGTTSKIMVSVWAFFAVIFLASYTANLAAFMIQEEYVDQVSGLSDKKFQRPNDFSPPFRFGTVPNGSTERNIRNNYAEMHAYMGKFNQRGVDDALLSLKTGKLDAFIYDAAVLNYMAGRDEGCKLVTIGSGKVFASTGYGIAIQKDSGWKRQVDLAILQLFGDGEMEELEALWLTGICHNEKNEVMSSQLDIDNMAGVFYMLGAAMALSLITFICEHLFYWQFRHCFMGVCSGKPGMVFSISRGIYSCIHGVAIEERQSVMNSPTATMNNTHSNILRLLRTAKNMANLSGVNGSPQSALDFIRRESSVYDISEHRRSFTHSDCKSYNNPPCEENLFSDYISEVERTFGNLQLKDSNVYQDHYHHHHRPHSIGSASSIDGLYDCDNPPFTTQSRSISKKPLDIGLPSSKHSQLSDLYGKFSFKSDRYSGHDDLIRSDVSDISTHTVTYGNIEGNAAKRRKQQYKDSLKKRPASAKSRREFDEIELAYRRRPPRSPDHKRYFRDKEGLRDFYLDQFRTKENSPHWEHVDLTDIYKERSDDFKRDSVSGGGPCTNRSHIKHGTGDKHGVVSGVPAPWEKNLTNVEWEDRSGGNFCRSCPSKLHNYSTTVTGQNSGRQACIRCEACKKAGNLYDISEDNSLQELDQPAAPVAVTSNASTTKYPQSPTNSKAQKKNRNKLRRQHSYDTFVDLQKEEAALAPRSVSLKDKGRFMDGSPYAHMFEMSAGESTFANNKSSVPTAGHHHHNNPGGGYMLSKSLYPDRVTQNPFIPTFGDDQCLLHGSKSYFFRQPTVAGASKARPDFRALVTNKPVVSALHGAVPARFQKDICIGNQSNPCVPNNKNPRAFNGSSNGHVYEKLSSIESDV
UniProt Q12879, 23-1464: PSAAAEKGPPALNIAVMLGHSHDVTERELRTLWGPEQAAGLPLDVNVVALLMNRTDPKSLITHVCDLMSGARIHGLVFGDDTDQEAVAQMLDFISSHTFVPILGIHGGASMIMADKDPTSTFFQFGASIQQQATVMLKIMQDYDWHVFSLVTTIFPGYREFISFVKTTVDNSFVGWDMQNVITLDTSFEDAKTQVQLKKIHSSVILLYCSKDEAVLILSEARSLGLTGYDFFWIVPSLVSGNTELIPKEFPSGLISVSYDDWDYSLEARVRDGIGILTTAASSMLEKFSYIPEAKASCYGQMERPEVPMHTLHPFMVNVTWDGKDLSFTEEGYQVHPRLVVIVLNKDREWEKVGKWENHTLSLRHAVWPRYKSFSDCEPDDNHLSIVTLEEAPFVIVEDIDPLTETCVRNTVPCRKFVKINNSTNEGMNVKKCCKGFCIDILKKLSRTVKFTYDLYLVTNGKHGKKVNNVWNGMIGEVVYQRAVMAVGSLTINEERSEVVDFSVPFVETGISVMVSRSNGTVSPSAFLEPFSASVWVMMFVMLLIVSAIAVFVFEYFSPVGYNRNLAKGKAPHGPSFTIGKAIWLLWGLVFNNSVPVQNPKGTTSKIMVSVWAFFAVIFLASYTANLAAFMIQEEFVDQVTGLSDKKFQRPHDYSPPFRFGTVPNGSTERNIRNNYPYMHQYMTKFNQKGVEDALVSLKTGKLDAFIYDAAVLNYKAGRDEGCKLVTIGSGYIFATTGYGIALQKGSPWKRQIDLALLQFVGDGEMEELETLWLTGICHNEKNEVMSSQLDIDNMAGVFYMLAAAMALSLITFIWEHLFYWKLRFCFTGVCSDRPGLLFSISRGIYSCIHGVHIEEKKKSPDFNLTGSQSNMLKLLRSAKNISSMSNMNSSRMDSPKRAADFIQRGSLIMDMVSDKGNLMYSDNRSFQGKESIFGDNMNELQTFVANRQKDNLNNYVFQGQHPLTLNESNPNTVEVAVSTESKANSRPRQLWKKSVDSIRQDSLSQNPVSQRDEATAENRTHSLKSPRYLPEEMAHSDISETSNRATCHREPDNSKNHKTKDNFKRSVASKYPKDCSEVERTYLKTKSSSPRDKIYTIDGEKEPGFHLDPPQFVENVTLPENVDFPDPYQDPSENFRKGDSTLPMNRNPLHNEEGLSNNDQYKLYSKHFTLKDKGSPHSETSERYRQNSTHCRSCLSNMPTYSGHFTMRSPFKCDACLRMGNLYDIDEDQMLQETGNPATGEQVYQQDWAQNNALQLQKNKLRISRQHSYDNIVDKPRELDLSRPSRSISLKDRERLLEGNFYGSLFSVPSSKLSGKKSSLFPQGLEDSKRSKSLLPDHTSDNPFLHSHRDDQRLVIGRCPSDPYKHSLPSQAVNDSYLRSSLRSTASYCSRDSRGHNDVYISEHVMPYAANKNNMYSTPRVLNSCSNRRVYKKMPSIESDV

Bounds are passed on as bounds.

One assay addresses human NR1/NR2B (Homo sapiens (Human), UniProt Q05586+Q13224). Kind of assay: NR2B antagonist activity (Fluo-4 calcium influx assay). The class given is cell-based.
Consider `FC(F)Oc1ccc(C(F)(F)CN2CCC(Nc3ncnc4[nH]ccc34)CC2)nc1` [Compound C-12, N-(1-(2-(5-(difluoromethoxy)pyridin-2-yl)-2,2-difluoroethyl)piperidin-4-yl)-7H-pyrrolo[2,3-d]pyrimidin-4-amine], for which the 50% inhibitory concentration (IC50) came out at 0.024 µM.

The next assay deals with human NR1/NR2A (Homo sapiens (Human), UniProt Q05586+Q12879). Kind of assay: NR2A activity (Fluo-4 calcium influx assay). The class given is cell-based.
In the case of `FC(F)Oc1ccc(C(F)(F)CN2CCC(Nc3ncnc4[nH]ccc34)CC2)nc1` [Compound C-12, N-(1-(2-(5-(difluoromethoxy)pyridin-2-yl)-2,2-difluoroethyl)piperidin-4-yl)-7H-pyrrolo[2,3-d]pyrimidin-4-amine], the IC50 was greater than 10 µM.
The same measure, in the same setting: the value for `Fc1cc(C(F)(F)F)cnc1C(F)(F)CN1CCC(Nc2ncnc3[nH]ccc23)CC1` [Compound C-18, N-(1-(2,2-difluoro-2-(3-fluoro-5-(trifluoromethyl)pyridin-2-yl)-ethyl)piperidin-4-yl)-7H-pyrrolo[2,3-d]pyrimidin-4-amine] was greater than 10 µM.
As to `FC(F)(F)Oc1ccc(C(F)(F)CN2CCC(Nc3ncnc4[nH]ccc34)CC2)nc1` [Compound C-11, N-(1-(2,2-difluoro-2-(5-(trifluoromethoxy)pyridin-2-yl)ethyl)piperidin-4-yl)-7H-pyrrolo[2,3-d]pyrimidin-4-amine], the IC50 was greater than 10 µM.
On the same count and under the same terms, the value for `FC(F)(F)c1ccc(C(F)(F)CN2CCC(Nc3ncnc4[nH]ccc34)CC2)nc1` [Compound C-5, N-(1-(2,2-difluoro-2-(5-(trifluoromethyl)pyridin-2-yl)ethyl)piperidin-4-yl)-7H-pyrrolo[2,3-d]pyrimidin-4-amine] was greater than 10 µM; that for `FC(F)c1ccc(C(F)(F)CN2CCC(Nc3ncnc4[nH]ccc34)CC2)nc1` [Compound C-6, N-(1-(2-(5-(difluoromethyl)pyridin-2-yl)-2,2-difluoroethyl)piperidin-4-yl)-7H-pyrrolo[2,3-d]pyrimidin-4-amine] was greater than 10 µM.
